In ChEMBL document CHEMBL3603746, “Discovery of New H2S Releasing Phosphordithioates and 2,3-Dihydro-2-phenyl-2-sulfanylenebenzo[d][1,3,2]oxazaphospholes with Improved Antiproliferative Activity” (J Med Chem, 2015):

How the values were obtained:
[1] = Induction of H2S release in 10% PBS:MeCN solution at 5 mM incubated at 37 degC in dark condition measured at 96 hrs by 0.2 mM 2, 6-dansyl azide probed-based fluorescence assay relative to control; conditions: buffer, 5000 µM
[2] = Induction of H2S release in 10% PBS:MeCN solution at 5 mM incubated at 37 degC in dark condition measured at 96 hrs by 2, 6-dansyl azide probed-based fluorescence assay relative to GYY4137; conditions: buffer, 5000 µM
Hepatocyte = test: Toxicity in transforming growth factor alpha transgenic mouse hepatocytes at 100 uM after 24 hrs by CellTiter-Glo cell viability assay
[3] = Induction of H2S release in 10% PBS:MeCN solution at 5 mM incubated at 22 degC in dark condition measured at 96 hrs by 2, 6-dansyl azide probed-based fluorescence assay relative to GYY4137; conditions: buffer, 5000 µM

| SMILES | %max [1] [%] | fold change (FC) [2] | Activity (Hepatocyte) | fold change (FC) [3] |
| --- | --- | --- | --- | --- |
| C1COCCN1.COc1ccc(OP(=S)(S)c2ccc(OC)cc2)cc1 (configuration not stated) | 0.31 | 0.1 | Non-toxic | 0.1 |
| C1COCCN1.COc1ccc(P(=S)(S)Oc2ccccc2)cc1 (configuration not stated) | 0.41 | 0.1 | Non-toxic | 0.1 |
| C1COCCN1.COc1ccc(P(=S)(S)Oc2ccc(F)cc2F)cc1 (configuration not stated) | 0.31 | 0.1 | Non-toxic | 0.2 |
